Ab-95 light chain CDR variants: yeast mating affinities

All variants were tested on one target, the spike HR2 peptide PDVDLGDISGINAS (SARS-CoV-2).

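In library AAYL52, one, two or three CDR residues were substituted; doubles and triples were drawn at random. In AlphaSeq, yeast of one mating type display the scFv and yeast of the other type display the target. After mating in shaken culture at 30 °C for 16 h, diploids were selected and their barcode pairs sequenced. Each replicate has its own calibration line, from reference interactions of the BCL2 family. There are three technical replicates.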

The variants keep the heavy chain, the linker and the frameworks of Ab-95 (scFv order VH, the linker GGGGSGGGGSGGGGS, VL).
VH: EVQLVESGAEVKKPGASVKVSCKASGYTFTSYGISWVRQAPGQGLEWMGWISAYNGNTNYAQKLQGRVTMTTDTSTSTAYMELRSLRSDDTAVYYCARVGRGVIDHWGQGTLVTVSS
VL: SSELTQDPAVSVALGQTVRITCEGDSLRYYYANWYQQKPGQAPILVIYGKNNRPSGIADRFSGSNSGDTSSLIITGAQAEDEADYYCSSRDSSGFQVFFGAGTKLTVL

Variants are written as CDR1, CDR2 and CDR3 of the light chain (limits as in the source). Parent: EGDSLRYYYAN, GKNNRPS, SSRDSSGFQVF. Affinities are written as log10 Kd with Kd in nM; a lower number is a better binder. The mean shown is taken over the replicates in which the pair was detected. "n.d." marks a missing value. The strain was present, yet no cells mated with the target were sequenced in that replicate, which points to weak or no binding. For reference, the parent read 2.31 as the reference entry and 2.25 as a member of this library.

CDR-L1 | CDR-L2 | CDR-L3 | replicates, log10 nM | mean log10 Kd (nM) | signal with controls
EGDSLRYYYAN | GKQNRPS | SIRDSSGFQVR | 3.91 n.d. n.d. | 3.91 | 1 of 9 (4.00)
EGDSLRVYYAD | GKNNRPS | SSRDYSGFQVF | 2.76 3.14 3.25 | 3.05 | 5 of 9 (4.50)
EGDSLRYYYAN | GKNNRPS | SSLDSAGFQVF | 2.32 2.52 2.66 | 2.50 | 1 of 9 (3.20)
EGDSLGYYYAN | GKNNRPY | SSRDSSFFQVF | 2.90 3.25 2.77 | 2.98 | 5 of 9 (4.02)
EGDSLRKYYAN | GKENRPS | SSRGSSGFQVF | 2.93 3.54 2.88 | 3.12 | 6 of 9 (4.08)
EGLSQRYYYAN | GKNNRDS | SSRDSSGFQVF | n.d. 4.75 n.d. | 4.75 | 3 of 9 (4.42)
EGDQLRYYYAN | GKNNRPS | SSRDSRGFQNF | n.d. n.d. n.d. | n.d. | 1 of 9 (2.71)
EGDSLRYYYAN | GKNNRPS | FSRDSSGKQVF | 2.39 n.d. 2.69 | 2.54 | 3 of 9 (3.95)
EGDSHRYDYAN | GKNNRPS | SSRDSSAFQVF | 3.52 n.d. n.d. | 3.52 | 4 of 9 (4.29)
EGCSLRYYYAN | GKNNRPV | SSRDSSGFQTF | 4.14 5.63 4.19 | 4.65 | 6 of 9 (4.17)
EGDSLRYCYAN | GKCNRPS | SSRVSSGFQVF | 3.27 n.d. n.d. | 3.27 | 4 of 9 (3.98)
EGDSLRYYYAN | GKNNRPS | SHPDSSEFQVF | n.d. n.d. n.d. | n.d. | 3 of 9 (3.22)
EGDSLAYLYAN | GKNNRPS | SSRESSGFQVF | 3.56 3.02 3.76 | 3.45 | 1 of 9 (4.23)
EGDSLRYYYAN | GKNNAMS | SSRDSSGFQVC | 2.83 2.88 3.45 | 3.05 | 3 of 9 (3.70)
EGDSLRYYYAN | QKNNRPS | SVRDSEGFQVF | 4.31 n.d. n.d. | 4.31 | 3 of 9 (3.62)
EGDSNRYNYAN | GKNNRPS | SSRDSSGFQQF | 1.35 1.43 1.28 | 1.35 | 3 of 9 (3.03)
EGDSLRYYYAN | GKNNRPS | SSRDDSCFQVF | 4.23 3.96 3.30 | 3.83 | 3 of 9 (4.13)
EGDSLRYDYIN | GKNNRPS | LSRDSSGFQVF | 3.88 n.d. n.d. | 3.88 | 2 of 9 (3.64)
EWDSLRYYYAN | GKNNRPS | SSRDSDGFQVI | n.d. 4.36 n.d. | 4.36 | 7 of 9 (4.28)
EGDSLRYYYAN | GFNNRPS | SSRDSSGEQWF | n.d. n.d. n.d. | n.d. | 0 of 9
EADSLRYYYAN | GKKNRES | SSRDSSGFQVF | n.d. n.d. n.d. | n.d. | 2 of 9 (4.04)
SGDSLRYYYAN | GKNNRPS | SDRDTSGFQVF | 2.45 2.05 2.05 | 2.18 | 1 of 9 (4.15)
EGDSLRYYYAE | GKINRES | SSRDSSGFQVF | n.d. n.d. n.d. | n.d. | 1 of 9 (3.73)
EGDSLRYYYAN | MKNNRPS | SSRDRSGFQVA | n.d. 4.52 n.d. | 4.52 | 1 of 9 (3.55)
EGKSLRYPYAN | GKNNRMS | SSRDSSGFQVF | 2.46 2.42 2.30 | 2.39 | 4 of 9 (3.96)
EGDSLRYMYAN | DKNNRPS | SSRDSSGFQVH | 3.16 2.55 1.73 | 2.48 | 0 of 9
EGDSLQYYTAN | GKNNRPS | SSRDFSGFQVF | 2.46 2.84 n.d. | 2.65 | 4 of 9 (3.08)
EGCSLRYYYAN | GKNNRPS | KSRDSSGFQSF | n.d. n.d. 3.95 | 3.95 | 3 of 9 (3.75)
CGDSLRYYYAN | GKENRPS | SDRDSSGFQVF | 3.13 2.80 2.59 | 2.84 | 1 of 9 (4.63)
EGDSLRYYIAN | GANNRPS | SSRDSSGFRVF | 3.61 2.78 n.d. | 3.20 | 2 of 9 (4.51)
EGDPLRYPYAN | GKNNRPS | SSIDSSGFQVF | 1.96 1.46 1.61 | 1.67 | 2 of 9 (3.70)
EGDSLRYYYRN | GKNNDPS | SSRDSFGFQVF | n.d. n.d. n.d. | n.d. | 2 of 9 (3.44)
EGDSLRYYYAN | GMNNRPS | SSRDLSGQQVF | 3.77 2.93 2.32 | 3.01 | 2 of 9 (3.32)
EGCSLFYYYAN | GKNNRPS | SSRDSSGFQVF | 3.70 n.d. n.d. | 3.70 | 4 of 9 (4.14)
MGDSLRYYYAN | GKNNRPS | SSRDDSGFCVF | n.d. 2.38 n.d. | 2.38 | 0 of 9
EGDSWRYYYAN | GKNNRPS | DSRDSEGFQVF | n.d. n.d. n.d. | n.d. | 0 of 9
EGDPLRLYYAN | GKNNRPS | SSRDESGFQVF | 3.70 3.23 n.d. | 3.47 | 2 of 9 (4.43)
ENDSLRYYYAN | KKNNRPS | SSRDSSGFQMF | n.d. n.d. n.d. | n.d. | 4 of 9 (4.97)
EGCSLRYYYAN | GKNNRPS | SSRASSGFQTF | n.d. 5.87 n.d. | 5.87 | 5 of 9 (3.79)
EGDSLRYYYAN | GKNNRPS | SMRDSSGRQVI | 3.93 n.d. 2.74 | 3.33 | 3 of 9 (3.87)
EGDSLRYTYAN | GKNNRPS | SSRLSSEFQVF | 2.17 1.82 1.10 | 1.70 | 1 of 9 (3.62)
EGDSLRYYYAF | GSNNRPS | SSRDSSTFQVF | 3.93 3.76 n.d. | 3.85 | 5 of 9 (4.51)
ENDSLRYYYAN | GKNNRQS | SSRASSGFQVF | n.d. n.d. n.d. | n.d. | 1 of 9 (3.67)
HGGSLRYYYAN | GKNNRPS | SSRDFSGFQVF | 2.99 3.29 2.50 | 2.92 | 3 of 9 (4.34)
EGDSMRYYYCN | GKNNRPS | SGRDSSGFQVF | 3.62 3.08 n.d. | 3.35 | 1 of 9 (3.48)
EGDSLRYYYAN | GKANRPS | SSRQFSGFQVF | 3.93 2.92 4.03 | 3.63 | 3 of 9 (3.77)

Top 3 of the variants detected in all replicates, tightest first:

CDR-L1 | CDR-L2 | CDR-L3 | replicates, log10 nM | mean log10 Kd (nM) | signal with controls
EGDSNRYNYAN | GKNNRPS | SSRDSSGFQQF | 1.35 1.43 1.28 | 1.35 | 3 of 9 (3.03)
EGDPLRYPYAN | GKNNRPS | SSIDSSGFQVF | 1.96 1.46 1.61 | 1.67 | 2 of 9 (3.70)
EGDSLRYTYAN | GKNNRPS | SSRLSSEFQVF | 2.17 1.82 1.10 | 1.70 | 1 of 9 (3.62)

Three control strains display no target. For library AAYL52, 28% of the pairings with them gave a signal, with a median of 3.91 and one signal in twenty below 2.90, so weak values seen in few replicates may be background. Also given: how often the same scFv was detected with the empty control strains, with their mean in brackets.

Reference: Engelhart et al. 2022, doi:10.1038/s41597-022-01779-4. File: FLAb, binding data.